How the values were obtained:
Homo sapiens [1] = species: Homo sapiens; assay: Selectivity ratio, ratio of Ki for human ERG to Ki for human NOP receptor
Homo sapiens [2] = species: Homo sapiens; assay: Selectivity ratio, ratio of Ki for human MOP receptor to Ki for human NOP receptor
Homo sapiens [3] = species: Homo sapiens; assay: Selectivity ratio, ratio of Ki for human DOP receptor to Ki for human NOP receptor
Homo sapiens [4] = species: Homo sapiens; assay: Selectivity ratio, ratio of Ki for human KOP receptor to Ki for human NOP receptor

In the case of `OCC1(N2CCC(n3c(N4CC5CNCC5C4)nc4ccccc43)CC2)CCCCCCC1` (centres undefined), the Ratio Ki (Homo sapiens [1]) is reported as 2570, the Ratio Ki (Homo sapiens [2]) is reported as 140 and the Ratio Ki (Homo sapiens [3]) is reported as > 3470. For the same molecule, the Ratio Ki (Homo sapiens [4]) was > 400.
